Patent publication US20260092037A1, “CRYSTALLINE SALT FORMS OF N-((1-(2-(TERT-BUTYLAMINO)-2-OXOETHYL)PIPERIDIN-4-YL) METHYL)-3-CHLORO-5-FLUOROBENZAMIDE AND METHODS OF USE THEREOF” (priority 2023, published 2026)

Test: X-ray powder diffraction (XRPD) of salt screen and scale-up products
Format: physicochemical
Conditions: salt screen

| XRPD Pattern (E, MeOH, oil, ACN) | Substance | XRPD Pattern (E, MeOH) | XRPD Pattern (Grind, ACN) | XRPD Pattern (SL, ACN, 50° C.) |
| --- | --- | --- | --- | --- |
|  | Nicotinate | API A + acid | API A + acid | Acid |
| API A + NC | Succinate |  | API A + acid |  |
